An excerpt weighted towards active compounds, which were near 0.24% of everything screened.
USP2a block: blocks human ubiquitin-specific protease USP2a | O75604 | USP2 core, Ub-CHOP2 coupled fluorogenic reporter, 485/531 | Potency, µM (series often up to 38.3 µM), inactives show top-dose activity change, negative = inhibition, usual class: inhibitors | hit rate 0.01% among 330,000 | AID 463254;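 also: potency is read from the fitted curve at half-maximal effect; plate controls were DMSO wells for no effect and full inhibition by NEM control for full effect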
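Cell-free coupled assay: 10nM USP2 core preincubated 30min RT with compound in Tris-HCl pH 8.0/CaCl2/CHAPS buffer, then 25nM Ub-CHOP2 and 25nM reporter substrate; fluorescence (Ex 485/Em 531) read after 60min RT, normalized to NEM inhibition, concentration-response curves fitted.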
PTAP TSG101 blk: blocks PTAP/TSG101 interaction to inhibit HIV-1 budding; Fluorescence polarization, FITC-PTAP peptide / Tsg101 binding; Potency, µM (top dose mostly 115 µM), for inactives: at the top dose activity change, negative = inhibition, actives largely listed as inhibitors; 340,000 tested, under 10 active; active = well fitted inhibition curve with a large enough effect in the main read-out, with a control signal flat, not every such curve was filed as active; inconclusive = small, poorly fitted or top-dose-only effect, or effect the other way, or a change in a side signal; inactive = no such curve, though single readings can be large or run the other way; also: potency is read from the fitted curve at half-maximal effect; % of control where 0% means no effect
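Compounds were pin-transferred onto Tsg101 binding domain (10 uM final) in HEPES pH 7.5 buffer, then FITC-PTAP peptide was added at 50 nM final. After 20 min at RT, polarization reported peptide displacement across a qHTS concentration series.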
GLS inhibitor: blocks human kidney-isoform glutaminase activity; O94925; GLS enzymatic activity, qHTS titration; Potency, µM (titrated, usually from 45.5 µM), without a hit: at the highest dose activity change, negative = inhibition, actives largely listed as inhibitors; hit rate 0.21% among 410,000; also: potency is read from the fitted curve at half-maximal effect; % is scaled to controls: 0 for no effect and ±100 for the full control effect
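Glutamate formation by hKGA was monitored fluorometrically using coupled glutamate oxidase, HRP and Amplex Red. Substrate was added as 1 mM L-glutamine solution; incubation was 30 min at RT after an initial read.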
Eya2 phos inh: blocks the phosphatase activity of human Eya2; Potency, µM (titrated, usually from 76.9 µM), for the others: at the top dose activity, negative = inhibition, hits mostly inhibitors; hit rate 0.006% among 330,000; recombinant Eya2, OMFP fluorescence dephosphorylation (OMFP is methylfluorescein phosphate); also: potency is read from the fitted curve at half-maximal effect; % is scaled to controls: 0 for no effect and ±100 for the full control effect
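Eya2 protein (added as 0.2 uM solution) was preincubated with compound for 10 min at ambient temperature in 50 mM HEPES pH 7.5, 50 mM NaCl, 5 uM MgCl2, 0.05% BSA, 1 mM DTT. OMFP (added at 50 uM) then reacted 10 min; fluorescence read at 485/525 nm.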
PTHR1 agonist: agonists of human PTHR1 parathyroid hormone receptor. Q03431. hit rate 0.075% among 410,000. Potency, µM (highest dose often 115 µM), inactives show at the highest dose activation, hits mostly activators. HEK293 GP2 PTHR1 cells, GloSensor cAMP luminescence, 1 h; also: potency is read from the fitted curve at half-maximal effect; nearly all actives have a fitted effect of over 55% in size
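HEK-293-derived GP2 cells expressing PTHR1 and a GloSensor cAMP reporter, 3,000/well, plated overnight, given luciferin plus IBMX (each 0.5 mM as added) for 1 h at 37 °C, then compound for 1 h at 37 °C. Luminescence was read after 15 min at room temperature.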
miR-21 reporter: raises the signal of a miR-21 reporter | HeLa miR-21 FLuc reporter, luciferase, 48 h | Potency, µM (highest dose often 38.3 µM), inactives show at the highest dose reporter change, positive = more light | 340,000 tested, under 10 active | AID 2288; active = well fitted rising curve with a large enough effect; inconclusive = small, poorly fitted or top-dose-only effect; inactive = no such curve, though single readings can be large or run the other way;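 note: % of control where 0% means no effect; miR-21 action dims this reporter so a rising signal means less miR-21 action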
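Compounds were titrated across several concentrations (up to approximately 40 uM) and incubated 48 hours with HeLa miR-21-FLuc reporter cells (miR-21 target sequence downstream of FLuc, endogenous miR-21). Readout was firefly luciferase luminescence after lytic detection reagent.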
GLS hit conf: confirmation of human glutaminase inhibitors; AID 624261; biochemical glutaminase enzyme inhibition assay; 35 tested, under 10 active; shares compounds with GLS inhibitor; Potency, µM (highest dose often 46.1 µM), for inactives: at the top dose activity change, negative = inhibition, hits mostly inhibitors; calls by dose curve
HRP GOx counter: inhibits HRP glutamate oxidase coupled readout, glutaminase counter-screen | shares compounds with GLS inhibitor | HRP/glutamate oxidase coupled Amplex Red fluorescence counterscreen | activity change, negative = inhibition, % at 46.1 µM | AID 624262 | 35 tested, under 10 active
GLS HEK tox: reduces HEK-293 viability in glutaminase inhibitor counter-screen | shares compounds with GLS inhibitor | HEK-293 viability, CellTiter-Glo luminescence, 24 h | AID 624264 | activity change, negative = cytotoxicity, % at 46.1 µM | 35 tested, under 10 active
Starred values were filed as active, the others as inactive; i = inactive; u = inconclusive; x = no result given. Unless noted, calls follow the shape of the dose curve; as a rule, active = well fitted curve in the direction sought with a large enough effect; inconclusive = small, poorly fitted or top-dose-only effect, or another doubt; inactive = no such curve, though single readings can be large; an effect the other way counts as inactive or inconclusive.

SMILES	USP2a block	PTAP TSG101 blk	GLS inhibitor	Eya2 phos inh	PTHR1 agonist	miR-21 reporter	others
CC(=O)O[C@H]1C[C@@H]2CC[C@@H]3[C@H](CC[C@]4(C)[C@H](OC(C)=O)[C@@H](N5CC[N+](C)(C)CC5)C[C@@H]34)[C@@]2(C)C[C@@H]1N1CC[N+](C)(C)CC1	x	x	-2%	x	x	x
CC1CCC(NC(=O)CCc2cn(Cc3ccc(F)cc3)c3ccccc23)CC1 (configuration not stated)	x	x	4%	x	-37%	-15%
S=c1[nH]nc2n1CCCN2	5%	0%	11µM*	-6%	i	-22%
Cc1ccc2nc3n(c2c1)CCCN3	2%	-1%	13%	8%	i	x
CC(=O)C(=Cc1ccc(Cl)cc1)C(=O)c1ccccc1	x	x	-28%	x	-52%	x
CC(=O)C(=Cc1cccc(C#N)c1)C(=O)c1ccccc1	x	x	11µM*	x	-13%	x
CC[C@H]1OC(=O)[C@H](C)[C@@H](O[C@H]2C[C@@](C)(OC)[C@@H](O)[C@H](C)O2)[C@H](C)[C@@H](O[C@@H]2O[C@H](C)C[C@H](N(C)C)[C@H]2O)[C@](C)(O)C[C@H](C)C(=NOCOCCOC)[C@H](C)[C@@H](O)[C@]1(C)O	x	x	6%	x	x	x
Cc1cc(=O)[nH]c(N/N=C/c2ccc(O)c(O)c2)n1	-1%	1%	13µM*	-30%	i	3%
Cc1ccc(OC(=O)c2cc(-c3ccc4c(c3)OCCO4)on2)c(C)c1	x	x	-12%	x	-6%	2%
CC(=O)Nc1cccc2cc(S(=O)(=O)O)ccc12	x	x	u	x	i	x

Taken from the entries so far for reference:
SMILES	USP2a block	PTAP TSG101 blk	GLS inhibitor	Eya2 phos inh	PTHR1 agonist	miR-21 reporter	others
CC(=O)O[C@H]1C[C@@H]2CC[C@@H]3[C@H](CC[C@]4(C)[C@H](OC(C)=O)[C@@H](N5CC[N+](C)(C)CC5)C[C@@H]34)[C@@]2(C)C[C@@H]1N1CC[N+](C)(C)CC1	x	x	-2%	x	x	x
CC1CCC(NC(=O)CCc2cn(Cc3ccc(F)cc3)c3ccccc23)CC1 (configuration not stated)	x	x	4%	x	-37%	-15%
S=c1[nH]nc2n1CCCN2	5%	0%	11µM*	-6%	i	-22%

(cont.)
SMILES	USP2a block	PTAP TSG101 blk	GLS inhibitor	Eya2 phos inh	PTHR1 agonist	miR-21 reporter	others
O=S(=O)(O)c1ccc(O)c2cc(Nc3ccccc3)ccc12	x	-14%	2.2µM*	x	i	x
Nc1cccc2c(O)cc(S(=O)(=O)O)cc12	x	u	2.8µM*	x	-3%	x
CC(=O)Nc1ccc2c(O)cc(S(=O)(=O)O)cc2c1	x	-8%	10µM*	x	24%	x
Nc1ccc2c(O)cc(S(=O)(=O)O)cc2c1	x	-29%	4µM*	x	-5%	x
O=S(=O)(O)c1cc(O)c2ccc(Nc3ccccc3)cc2c1	x	-13%	5µM*	x	-11%	x
COc1ccccc1Nc1ccc2c(O)cc(S(=O)(=O)O)cc2c1	x	-6%	2.2µM*	x	-61%	x
O=S(=O)(O)c1cc(O)c2cc(Nc3ccccc3)ccc2c1	x	-8%	u	x	-17%	x
Cc1cc(C)cc(NC(=O)CCN2C(=O)c3ccccc3Sc3ncccc32)c1	x	x	3%	x	u	4%
CC(C)c1ccc(C2NC(=O)c3c(sc4c3CCN(C)C4)N2)cc1 (configuration not stated)	x	x	16µM*	x	i	-9%
CN1CCc2c(sc3c2C(=O)NC(c2ccc(C(C)(C)C)cc2)N3)C1 (configuration not stated)	x	x	16µM*	x	i	-12%

By substructure, the entries above containing a thiophene ring, fused or not.
SMILES	USP2a block	PTAP TSG101 blk	GLS inhibitor	Eya2 phos inh	PTHR1 agonist	miR-21 reporter	others
CC(C)c1ccc(C2NC(=O)c3c(sc4c3CCN(C)C4)N2)cc1 (configuration not stated)	x	x	16µM*	x	i	-9%
CN1CCc2c(sc3c2C(=O)NC(c2ccc(C(C)(C)C)cc2)N3)C1 (configuration not stated)	x	x	16µM*	x	i	-12%

The list goes on.
SMILES	USP2a block	PTAP TSG101 blk	GLS inhibitor	Eya2 phos inh	PTHR1 agonist	miR-21 reporter	others
CSc1ccc(C2NC(=O)c3c(sc4c3CCN(C)C4)N2)cc1 (configuration not stated)	7%	u	u	15%	i	-20%
CCOc1ccccc1C(=O)Nc1c(C(=O)Nc2ccc(F)cc2)oc2ccccc12	x	x	-1%	x	i	22%
COc1cccc(NC(=O)CSc2nc3ccc(NC(=O)c4ccco4)cc3s2)c1	x	x	2%	x	-10%	u
O=C(O)C1=CCC=CC1C(=O)O (configuration not stated)	x	x	11µM*	x	-16%	x
ClC(Cl)(c1nnnn1-c1ccccc1)c1nnnn1-c1ccccc1	1%	-3%	10µM*	2%	i	u
c1ccc(-c2nnnn2-c2ccccc2)cc1	1%	-2%	-5%	10%	i	0%
CCN(CC)c1ccc(NS(=O)(=O)c2ccc3c(c2)CCCN3C(C)=O)c(C)c1	x	x	48%	x	-5%	13%
Cc1c(C)c2ccc(OCC(=O)NC(Cc3c[nH]c4ccc(O)cc34)C(=O)O)c(C)c2oc1=O (configuration not stated)	3%	0%	11µM*	-6%	i	0%
Cc1nn(CC(=O)NC2CC2)c(=O)c2cc3cc(F)ccc3n12	x	x	6%	x	-13%	-1%
O=C(N/N=C/c1cn(Cc2cccc(F)c2)c2ccccc12)c1cc(O)cc(O)c1	1%	-12%	2.5µM*	-3%	u	-19%
O=S(=O)(c1ccc(NC(=S)N2CCOCC2)cc1)N1CCCCC1	x	x	0%	x	-26%	x
O=S(=O)(c1ccc(NC(=S)N2CCN(c3ccc(O)cc3)CC2)cc1)N1CCOCC1	1%	0%	7.1µM*	-13%	i	26%
Cc1ccc(S(=O)(=O)Nc2ccccc2/C=N/c2nc3ccccc3n2C)cc1	-2%	-3%	u	2%	i	u	GLS hit conf=u;HRP GOx counter=7;GLS HEK tox=-7
O=C(Nc1ccccc1O)c1cccc(S(=O)(=O)Nc2ccccc2O)c1	x	3%	10µM*	x	-64%	x	GLS hit conf=u;HRP GOx counter=u;GLS HEK tox=1
Cc1ccccc1NS(=O)(=O)c1cccc(C(=O)Nc2cccc(C(=O)O)c2)c1	1%	0%	1%	-6%	-21%	4%
O=S(=O)(Nc1ccccc1O)c1cccc2cccnc12	1%	1%	u	-1%	-17%	2%	GLS hit conf=-3%;HRP GOx counter=u;GLS HEK tox=-5
O=S(=O)(Nc1ccc(O)cc1)c1cccc2cccnc12	4%	-1%	-17%	4%	-20%	-8%
COc1ccccc1NC(=O)c1cc(S(=O)(=O)NCc2ccccc2)ccc1F	0%	-2%	u	12%	-1%	20%	GLS hit conf=6%;HRP GOx counter=-1;GLS HEK tox=3
Cc1ccc(S(=O)(=O)c2nnn3c2nc(N2CCC(C)CC2)c2cc(Cl)ccc23)cc1C	x	x	-1%	x	i	3%
CCOC(=O)CC(NS(=O)(=O)c1ccc2[nH]cc(C(=O)O)c(=O)c2c1)c1ccc(OCC)c(OC)c1 (configuration not stated)	0%	-8%	16µM*	2%	i	0%	GLS hit conf=21µM*;HRP GOx counter=6;GLS HEK tox=-1
